Measurements reported in patent publication US20100105655A1, “NOVEL COMPOUNDS 515” (ASTRAZENECA AB, priority 2008, published 2010).

The chains behind the UniProt entries cited, without tags or fusion partners. Residues count along the entry.
UniProt P08069, 31-1367 limits assumed: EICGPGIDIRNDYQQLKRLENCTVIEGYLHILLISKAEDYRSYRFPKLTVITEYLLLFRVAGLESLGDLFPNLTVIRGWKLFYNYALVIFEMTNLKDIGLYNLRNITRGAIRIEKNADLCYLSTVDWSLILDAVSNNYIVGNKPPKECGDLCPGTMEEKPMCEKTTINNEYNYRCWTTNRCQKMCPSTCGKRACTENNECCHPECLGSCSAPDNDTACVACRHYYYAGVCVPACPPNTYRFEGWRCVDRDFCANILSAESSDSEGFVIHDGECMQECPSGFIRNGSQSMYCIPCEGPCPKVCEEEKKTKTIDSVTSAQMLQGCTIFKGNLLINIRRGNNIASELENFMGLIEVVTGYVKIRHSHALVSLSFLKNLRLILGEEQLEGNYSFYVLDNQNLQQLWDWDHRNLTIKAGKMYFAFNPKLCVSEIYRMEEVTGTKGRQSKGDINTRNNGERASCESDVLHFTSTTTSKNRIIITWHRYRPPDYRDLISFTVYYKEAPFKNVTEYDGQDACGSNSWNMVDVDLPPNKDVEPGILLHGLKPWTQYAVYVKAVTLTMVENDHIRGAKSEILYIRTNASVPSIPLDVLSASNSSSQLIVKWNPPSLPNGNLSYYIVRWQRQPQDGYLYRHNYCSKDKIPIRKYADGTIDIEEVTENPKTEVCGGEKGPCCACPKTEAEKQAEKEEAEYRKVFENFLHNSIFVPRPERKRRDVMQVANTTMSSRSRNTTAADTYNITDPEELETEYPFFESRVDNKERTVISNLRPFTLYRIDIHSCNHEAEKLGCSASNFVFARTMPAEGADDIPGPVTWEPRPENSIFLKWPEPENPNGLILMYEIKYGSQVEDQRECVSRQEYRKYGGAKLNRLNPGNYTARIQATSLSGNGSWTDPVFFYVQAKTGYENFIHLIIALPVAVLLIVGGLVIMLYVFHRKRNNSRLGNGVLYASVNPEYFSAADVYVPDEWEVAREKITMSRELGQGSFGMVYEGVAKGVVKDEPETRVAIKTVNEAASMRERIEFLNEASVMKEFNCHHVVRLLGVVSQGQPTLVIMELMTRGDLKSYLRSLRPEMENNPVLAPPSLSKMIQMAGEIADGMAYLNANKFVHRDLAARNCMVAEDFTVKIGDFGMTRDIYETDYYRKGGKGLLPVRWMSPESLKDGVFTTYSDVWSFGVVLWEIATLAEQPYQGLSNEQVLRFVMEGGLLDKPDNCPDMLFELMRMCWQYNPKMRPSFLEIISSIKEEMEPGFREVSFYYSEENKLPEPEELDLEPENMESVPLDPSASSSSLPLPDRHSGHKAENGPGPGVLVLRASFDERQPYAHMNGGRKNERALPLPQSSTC

Target: IGFR kinase (Homo sapiens, UniProt P08069)
Experiment: Enzyme assay (c), IGFR kinase, Caliper LabChip
Type: biochemical
Settings: read-out: IGFR IC50; 30 nM IGFR kinase, 6 uM ATP, 3 uM peptide mix

CNC(=O)[C@@H](C)Oc1ccc(Nc2ncc(Cl)c(-c3cnc4c(F)cccn34)n2)c(OC)c1
IC50: 9 nM
